{"source": "patent US20010046957A1", "about": "“Method for treating hepatitis C” (priority 1999, published 2001)", "origin": "cited, not measured here", "system": "HCV"}
{"substance": "PEG IFN-α2A conjugate", "values": [{"measurement": "sustained virological response", "setting": "CHC patients with cirrhosis, phase III study (Heathcote J)", "value": 29, "unit": "%"}, {"measurement": "sustained reduction of the virus to undetectable levels", "setting": "non cirrhotic patients with CHC, phase II study (Shiffman M)", "value": 36, "unit": "%"}]}
